Test results: patent US20100010219A1, “METHOD FOR PRODUCING PYRROLIDINE COMPOUND” (JAPAN TOBACCO INC., priority 2006, published 2010)

Sequences of proteins named here, by UniProt entry; tags and fusion partners are left off.
UniProt P28845, whole entry: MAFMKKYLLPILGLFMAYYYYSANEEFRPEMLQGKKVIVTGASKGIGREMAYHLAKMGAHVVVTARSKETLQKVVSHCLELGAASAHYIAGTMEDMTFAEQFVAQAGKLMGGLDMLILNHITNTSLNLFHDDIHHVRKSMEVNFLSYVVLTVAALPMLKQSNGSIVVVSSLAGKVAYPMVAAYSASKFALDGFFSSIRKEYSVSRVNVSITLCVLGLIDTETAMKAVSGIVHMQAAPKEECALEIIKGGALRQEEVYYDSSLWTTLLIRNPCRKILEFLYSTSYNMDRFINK

Target: human HSD-1 (recombinant HSD-1) (Homo sapiens, UniProt P28845)
Assay: HSD-1 activity inhibitory action in vitro (SPA, conversion of cortisone to cortisol)
Details: read-out: hHSD1 (IC50 (nM)); recombinant human HSD-1 expressed using baculovirus system; 10 nM 3H cortisone, 500 μM NADPH; room temperature 90 to 120 min

O=C(OCCO)N1CCC(n2ncc(C(=O)N3CC[C@@H](c4ccccc4C(F)(F)F)C3)c2C2CC2)CC1 was tested. Which IC50 did it give?
Its IC50 is under 30 nM.
